Laboratory results as given in paper PMC11842024, “Reversible male contraception by targeted inhibition of serine/threonine kinase 33” (Science (New York, N.Y.), 2024).
Like-named read-outs stand apart in the source and are kept apart here.

Amino acid sequences for entries named in this document (tags omitted). A change or cut given only in a name is not applied to a line headed by its entry.
UniProt Q9BYT3: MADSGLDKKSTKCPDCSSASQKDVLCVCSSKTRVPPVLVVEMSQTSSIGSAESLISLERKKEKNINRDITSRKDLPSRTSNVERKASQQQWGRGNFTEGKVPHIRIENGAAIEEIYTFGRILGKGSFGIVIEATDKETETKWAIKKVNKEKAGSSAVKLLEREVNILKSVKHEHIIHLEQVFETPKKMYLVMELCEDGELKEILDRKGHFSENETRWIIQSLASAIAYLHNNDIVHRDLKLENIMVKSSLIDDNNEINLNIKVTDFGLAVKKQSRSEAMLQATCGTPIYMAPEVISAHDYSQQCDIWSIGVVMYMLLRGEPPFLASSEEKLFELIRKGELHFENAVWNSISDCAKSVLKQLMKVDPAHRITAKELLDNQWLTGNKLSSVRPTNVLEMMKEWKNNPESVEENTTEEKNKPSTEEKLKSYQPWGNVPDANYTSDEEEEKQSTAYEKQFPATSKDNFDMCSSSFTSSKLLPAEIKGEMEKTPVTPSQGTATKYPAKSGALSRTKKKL

Key:
STK33 [1] = molecular target: T1, STK33 (Homo sapiens, UniProt Q9BYT3); set-up: purchased SelectScreen Services (ThermoFisher); conditions: read-out: reported IC50 in biochemical assays; cited from earlier work
STK33 [2] = molecular target: T1, STK33; experiment: LanthaScreen binding assay (ThermoFisher SelectScreen); set-up: purchased SelectScreen Services (ThermoFisher)
Excerpt: In vitro biochemical assays. Several small molecule assays were outsourced to SelectScreen Services (ThermoFisher) for STK33 and for off-target kinases (data sets are available on demand).
These assays are LanthaScreen (binding assay) and Z’-LYTE (activity assay). Dose-responses were done with at least 5 different concentrations in duplicates, and parameters were optimized by calculations described below and provided with standard errors.
Calculation of Kd values for kinase inhibitors that bind to the ATP pocket of a kinase from LanthaScreen binding data. DynaFit (71) was used to fit complex equilibria where a tracer is displaced by a dilution series of a kinase inhibitor. This method relies on the concentration of inhibitor, as well as the concentration of kinase and tracer, and Kd of the tracer. The latter three parameters are tabulated by ThermoFisher for each kinase in the LanthaScreen assay panel. […]
Since Kd and Ki values are defined the same way, in other words, Kd = [E] [I] / [EI] = Ki, Kd and Ki values can be compared. […]

STK33 [3] = molecular target: T1, STK33; experiment: NanoBRET target engagement intracellular kinase assay; assay type: cell-based; set-up: host or cells: HEK293 (HEK293T cultured); conditions: HEK293 cells, 2 hours incubation
Method: NanoBRET Target Engagement intracellular kinase assay. HEK293T cells were cultured in […]
The cell line underwent authentication by short tandem repeat (STR) profiling at Cytogenetics and Cell Authentication Core (CCAC) at MD Anderson Cancer Center. NanoBRET Target Engagement intracellular kinase assay, K-10 assay (Cat. # N2641), K-9 assay (Cat. # N2631), transfection reagent FuGENE HD (Cat. # E2311), transfection carrier DNA (Cat. # E4881), NanoLuc-STK33 fusion vector (Cat. # NV2111), NanoLuc-RET fusion vector (Cat. # NV1951), NanoLuc-CLK1 fusion vector (Cat. # NV1131), NanoLuc-CLK2 fusion vector (Cat. # NV1141), and NanoLuc-CLK4 fusion vector (Cat. # NV1151) were purchased from Promega. The measurement of test compound engagement with cellular target protein was performed in a 384-well format according to manufacturer’s instructions. HEK293 cells were transiently transfected with NanoLuc (STK33, RET, CLK1, CLK2, and CLK4) fusion vectors. […]
0.4 nM at a fixed tracer concentration. Staurosporine was measured in parallel as a positive control.
Freshly prepared NanoBRET Nano-Glo substrate plus extracellular NanoLuc inhibitor was then added to initiate the subsequent bioluminescence resonance energy transfer (BRET) measurements using a CLARIOstar Plus BMG LABTECH plate reader. […]

- Kd (STK33 [2]): 39.6 nM
- IC50 (STK33 [3]): 7710 nM
Substance: ML281 [reference compound]
- IC50 (STK33 [1]): 14 nM
